Each structure is given as a SMILES string.

Broadly, the AUC(0-inf) is total exposure, with the tail of the curve extrapolated. A higher AUC(0-inf) goes with high exposure.

The nature of this data set: Pharmacokinetic study in rats after oral administration of QSG.

In turn, `O=C(/C=C/c1ccc(O)c(O)c1)O[C@@H]1C[C@](O)(C(=O)O)C[C@@H](O)[C@H]1O` [Chlorogenic acid] showed an AUC(0-inf) (Sprague Dawley, rat, plasma, po, 7 g/kg, AUC0→∞, Table S12, rats, oral QSG) of 176 ng·h/mL.

The compound `O=C(/C=C/c1ccc(O)c(O)c1)O[C@@H]1C[C@@](O)(C(=O)O)C[C@@H](O)[C@@H]1O` [Neochlorogenic acid] yielded an AUCi (exposure (AUC0→∞) of the component in rats after oral QSG, as used for ECI) of 175.7. Besides, the “AUC0→∞” value (rat plasma, single oral 7 g/kg QSG, n = 6) came to 175.7 ± 70.81 ng·h/mL.

(Values after PMC12567096, “An Efficacy- and In Vivo Exposure-Oriented Integrated Study to Investigate the Effective Components of Qishen Granule” (Pharmaceuticals, 2025).)
